These are literature values, as cited in patent US20120107391A1, “THERAPY OF PLATINUM-RESISTANT CANCER” (Genentech, Inc., priority 2004, published 2012).

The conditions of the data set: combined with gemcitabine, phase II trials; cited from earlier work.

Consider “Trastuzumab: Recombinant humanized version of murine HER2 antibody 4D5; light and heavy chain SEQ ID NOS. 14 and 15”, for which the tolerability result is “well tolerated with no observed cardiac or unexpected toxicities”.
